From PubChem BioAssay AID651660 (Broad Institute, 2012) come the findings set out here.

Sequences of proteins named here, by UniProt entry; tags and fusion partners are left off. A change or cut given only in a name is not applied to a line headed by its entry.
UniProt P43351: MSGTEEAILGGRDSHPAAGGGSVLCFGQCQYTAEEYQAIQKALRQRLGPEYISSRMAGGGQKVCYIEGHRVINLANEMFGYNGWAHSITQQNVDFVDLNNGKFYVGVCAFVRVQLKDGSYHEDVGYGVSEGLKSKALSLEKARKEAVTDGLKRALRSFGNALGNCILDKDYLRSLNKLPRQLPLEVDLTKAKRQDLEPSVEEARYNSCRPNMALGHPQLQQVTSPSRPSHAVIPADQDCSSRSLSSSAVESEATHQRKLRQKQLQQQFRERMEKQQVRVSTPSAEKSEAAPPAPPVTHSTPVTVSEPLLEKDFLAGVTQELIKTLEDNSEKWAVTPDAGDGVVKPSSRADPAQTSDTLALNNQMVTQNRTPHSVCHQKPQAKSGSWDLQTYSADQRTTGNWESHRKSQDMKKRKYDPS

This is a selection; strong and weak results do not stand in their true shares. Activity calls are given as the source filed them.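 The calls were made as follows: active = every replicate shows at least 50% inhibition; inconclusive = mean inhibition at least 50% but some replicate below; inactive = the rest.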

Usually inhibition stands for the change of the read-out against control, counted positive when it falls.

The test concerns the target DNA repair protein RAD52 homolog (Homo sapiens) (UniProt P43351). The test is described as follows: RAD52 ssDNA annealing inhibitors, primary screen, biochemical, FRET, single point (AID 651660).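 Also: 0% = median of neutral control wells and 100% = median of positive control wells.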 The note with it: Recombinant RAD52 ssDNA annealing, FRET fluorescence, 30 min; at 18.7 µM; stronger effect = higher value.
For the compound `CN(C(=O)Cc1ccc(Cl)c(Cl)c1)[C@@H]1CCCC[C@H]1N1CCCC1`, the inhibition is inactive: -3.97%.
